Patent publication US4415495A, “5,6;8,9-Tetrahydro-7H-dibenz(d,f)azonines” (Godecke Aktiengesellschaft, priority 1981, dated 1983)

Legend:
[1] = system: Rats with calcium chloride induced arrhythmias; experiment: Calcium chloride induced arrhythmias in narcotised rats (prophylactic i.v. administration); assay type: in vivo; details: in comparison with control animals or procainamide
Description: By means of the intravenous infusion of a calcium chloride solution, […] induced in narcotised rats which, after termination of the infusion, continue for a certain period of time (modification of the method described by Malinow et al., Arch. Int. Pharmacodyn, 102, 266/1955). This arrhythmic phase is shortened by the prophylactic administration of antiarrhythmic drugs. The activities of the compounds according to the present invention are compared with those of procainamide and phenytoin. The results of the experiments with calcium chloride induced arrhythmias on rats are summarized in the following Table I. The average period of arrhythmia is calculated from experiments with at least 10 animals.

in vivo = details: mouse, po
Description: The compounds according to the present invention are administered intragastrally to male mice (NMRI) with a body weight of from 20 to 25 g. Each dosage group consists of 4 animals. The LD50 values are determined after having observed the animals for 7 days.

Which “antiarrhythmic action / period of arrhythmia (in words)” value [1] does the source give for O=C1NC(=O)C(c2ccccc2)(c2ccccc2)N1 [phenytoin, reference compound] here?
Its value is “did not exhibit an antiarrhythmic action”.

What about the LD50 at 168 h (in vivo) of the same compound?
The LD50 at 168 h was 150 mg/kg.
